This is an account of results in patent US20170183318A1, “AMIDE COMPOUNDS, METHODS FOR PREPARATION, AND USE THEREOF AS AGENTS FOR THE TREATMENT AND PREVENTION OF DISEASES CAUSED BY RNA- AND/OR DNA-CONTAINING VIRUSES, AND CONCOMITANT DISEASES” (OBSCHESTVO S OGRANICHENNOI OTVETSTVENNOSTIYU …, priority 2014, published 2017).

Read-outs that look alike come from different tables or passages of the source.

For the assay, the system named is human virus hRSV. Briefly: Antiviral activity against mouse-adapted RS virus (body weight; viral titer in lungs titrated in Hep-2 cells). The class given is in vivo, mice. As to conditions: for log reduction at 30 mg/kg: human respiratory syncytial virus, HEp-2, po.

With `NC(=O)c1ncn([C@@H]2O[C@H](CO)[C@@H](O)[C@H]2O)n1` [Ribavirin, reference compound], under “day 5, 10% lung suspension titrated in Hep-2 cells (TCID), compounds 30 mg/kg, Ribavirin 40 mg/kg”, the “hRSV in the lungs of mice, Day 5, lg” value stood at 2.1 ± 0.12 lg. Also, the “Body weight of the mice on day 5 after infection with hRSV (M ± SD)” value (day 5, compounds 30 mg/kg, Ribavirin 40 mg/kg, orally once daily for 5 days, n = 6) worked out at 16.20 ± 0.24. Further, the “hRSV in the lungs of mice, Day 7, lg” value (day 7, 10% lung suspension titrated in Hep-2 cells (TCID), compounds 30 mg/kg, Ribavirin 40 mg/kg) amounted to 1.15 ± 0.12 lg. For the setting “day 7, compounds 30 mg/kg, Ribavirin 40 mg/kg, orally once daily for 5 days, n = 6”, the “Body weight of the mice on day 7 after infection with hRSV (M ± SD)” value turned out to be 17.23 ± 0.22. Besides, the log reduction at 30 mg/kg worked out at 2.4 ± 0.12 (120 h, read-out: Suppression of the reproduction of hRSV in the lungs of mice, Day 5, Δlg) and 2.4 ± 0.12 (168 h, read-out: Suppression of the reproduction of hRSV in the lungs of mice, Day 7, Δlg).
